Patent US4782069A, “1,4-Dihydropiridines and their use as antithrombotic drugs” (Alter, S.A., priority 1986, dated 1988)

Columns and labels:
Assay type in all cases: cell-based
[1] = test system: human platelets (ATP secretion); test: Releasing reaction (ATP secretion from activated platelets), simultaneous to collagen aggregation; settings: Platelet, 0.25 h, human PRP, compound 10^-4 M, 37° C., 15 minutes, 2 ug/ml collagen
Protocol: (§1) Citrated human blood was used, from which platelet-rich plasma (PRP) was prepared. 450 ul PRP aliquots were incubated at 37° C. with the assayed compounds at a single concentration of 10^-4 M for 15 minutes. Aggregating agents (2 ug/ml collagen and 2.5 uM ADP) were added in a 50 ul volume and the aggregation was measured as optical density decrease in the platelet suspension.

[2] = test system: human platelets (ADP-induced aggregation); test: "In vitro" aggregation on human platelets (PRP), ADP-induced; settings: Platelet, 0.25 h, compound 10^-4 M, 37° C., 15 minutes, 2.5 uM ADP
Protocol: (§2) (A) "IN VITRO" A[…] HUMAN PLATELETS (Born, G.V.R., Nature 194:927 (1962)).
as §1

[3] = test system: human platelets (collagen-induced aggregation); test: "In vitro" aggregation on human platelets (PRP), collagen-induced; settings: Platelet, 0.25 h, compound 10^-4 M, 37° C., 15 minutes, 2 ug/ml collagen
Protocol: as §2, §1

For `OCCN(CCO)c1nc(N2CCCCC2)c2nc(N(CCO)CCO)nc(N3CCCCC3)c2n1` [DIPYRIDAMOL, reference compound], the inhibition at 100 µM [1] was 38%, the inhibition at 100 µM [2] was 17% and the inhibition at 100 µM [3] was 21%.
